What was measured:
[1] = tested on: veratridine-induced 3H-glutamate release from brain nerve terminals (voltage-activated presynaptic Na channels); assay: Inhibition of veratridine-induced 3H-glutamate release, rapid superfusion of synaptosomes; assay type: biochemical; settings: 3 μM compound; 50 μM veratridine-induced release; rat brain synaptosomes
[2] = tested on: depolarization-induced 3H-glutamate release from brain nerve terminals; assay: Inhibition of 3H-glutamate release, high [K+] depolarization, rapid superfusion of synaptosomes; assay type: biochemical; settings: rat brain synaptosomes; for % Inhibition of ^3H-Glu Rel @ 1 μM: 1 μM compound; for % Inhibition of ^3H-Glu Rel @ 0.3 μM: 0.3 μM compound

Substance | % Inhibition of ^3H-Glu Rel @ 1 μM [2] | % Inhibition of ^3H-Glu Rel @ 0.3 μM [2] | other results
N-(1-Naphthylmethyl)-N-(4-tert-butylbenzyl)guanidine.HCl [Example 52] | – | – | % Inhibition of ^3H-Glu Rel @ 3 μM (*veratridine-induced glutamate release assay) [1]: 55* %
N-(5-Acenaphthyl)-N′-(indolinyl)guanidine.mesylate [Example 29] | – | – | % Inhibition of ^3H-Glu Rel @ 3 μM ([2]; 3 μM compound): 22%
N,N′-(sec-Butylphenyl)-N′-(2-phenoxyethyl)guanidine.HCl [Example 45] | 57% | – | –
N,N′-Bis-(3-(1′-methyl-2′-phenyl)ethyl)guanidine.HCl [Example 94] | 66% | – | –
N,N′-bis(benzyloxyphenyl)guanidine | – | 46% | –
N-(3-Naphthylmethyleneoxyphenyl)-N′-(4-tert-butylphenyl)guanidine.mesylate [Example 103] | – | 50% | –
N-(5-Acenaphthyl)-N′-(1-benz[cd]indolinyl)guanidine.HCl [Example 117] | 39% | – | –
N-(4-sec-Butylphenyl)-N-(4-tert-butylbenzyl)-N′-(4-propylpiperidinyl)guanidine.HCl [Example 76] | – | 45% | –
